The chains behind the UniProt entries cited, without tags or fusion partners. Where a name states a change or a piece, a line headed by the entry shows the natural chain unless it says otherwise.
UniProt Q9Y5N1: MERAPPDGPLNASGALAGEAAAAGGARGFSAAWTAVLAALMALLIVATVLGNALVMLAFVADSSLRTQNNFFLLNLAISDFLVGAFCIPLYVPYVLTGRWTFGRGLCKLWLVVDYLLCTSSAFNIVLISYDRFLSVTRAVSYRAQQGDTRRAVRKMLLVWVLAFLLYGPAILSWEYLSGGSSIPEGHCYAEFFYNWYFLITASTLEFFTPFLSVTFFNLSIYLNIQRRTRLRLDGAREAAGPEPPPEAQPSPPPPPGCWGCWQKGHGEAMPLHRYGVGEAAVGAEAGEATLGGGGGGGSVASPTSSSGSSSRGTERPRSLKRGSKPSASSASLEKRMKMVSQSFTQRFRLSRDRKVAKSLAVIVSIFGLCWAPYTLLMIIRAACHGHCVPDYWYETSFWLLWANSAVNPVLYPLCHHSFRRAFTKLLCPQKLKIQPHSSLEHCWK

In ChEMBL document CHEMBL4311931, “Controlling cellular distribution of drugs with permeability modifying moieties” (Medchemcomm, 2019):

Key:
Histamine H3 receptor [1] = biological target: T1, Histamine H3 receptor (Homo sapiens, UniProt Q9Y5N1); assay: Displacement of [3H]Nalpha-methylhistamine from recombinant human histamine H3 receptor after 60 mins by scintillation counting method relative to parent compound
Histamine H3 receptor [2] = biological target: T1, Histamine H3 receptor; assay: Antagonist activity at human H3 receptor expressed in CHOK1 cells incubated for 10 mins by HTRF assay relative to parent compound; type: cell-based

SMILES | fold change (FC) (Histamine H3 receptor [1]) | fold change (FC) (Histamine H3 receptor [2])
Cc1nn(CCOCCOCCNC(=O)OC(C)(C)C)cc1-c1ccc2cc(CCN3CCC[C@H]3C)ccc2n1 | 33 | 0.95
Cc1nn(CCOCCOCCN)cc1-c1ccc2cc(CCN3CCC[C@H]3C)ccc2n1 | 1.6 | 0.02
Cc1nn(CCOCCOCCNC(=O)CCCCCC2(C)C(/C=C/C=C/C=C3/N(CCCS(=O)(=O)O)c4ccc(S(=O)(=O)O)cc4C3(C)C)=[N+](CCCS(=O)(=O)[O-])c3ccc(S(=O)(=O)O)cc32)cc1-c1ccc2cc(CCN3CCC[C@H]3C)ccc2n1 (stereo not given in full) | 4.2 | 0.3
Cc1nn(CCOCCOCCNC(=O)C2C(C(=O)O)C(C(=O)O)C2C(=O)O)cc1-c1ccc2cc(CCN3CCC[C@H]3C)ccc2n1 (stereo not given in full) | 56 | 3.5
Cc1nn(CCOCCOCCNC(=O)CS(=O)(=O)O)cc1-c1ccc2cc(CCN3CCC[C@H]3C)ccc2n1 | 12.4 | 1
